Source: US6667306B1, “Platelet ADP receptor inhibitors” (Millennium Pharmaceuticals, Inc., priority 1998, dated 2003)

Amino acid sequences for entries named in this document (tags omitted). A change or cut given only in a name is not applied to a line headed by its entry.
UniProt P47900: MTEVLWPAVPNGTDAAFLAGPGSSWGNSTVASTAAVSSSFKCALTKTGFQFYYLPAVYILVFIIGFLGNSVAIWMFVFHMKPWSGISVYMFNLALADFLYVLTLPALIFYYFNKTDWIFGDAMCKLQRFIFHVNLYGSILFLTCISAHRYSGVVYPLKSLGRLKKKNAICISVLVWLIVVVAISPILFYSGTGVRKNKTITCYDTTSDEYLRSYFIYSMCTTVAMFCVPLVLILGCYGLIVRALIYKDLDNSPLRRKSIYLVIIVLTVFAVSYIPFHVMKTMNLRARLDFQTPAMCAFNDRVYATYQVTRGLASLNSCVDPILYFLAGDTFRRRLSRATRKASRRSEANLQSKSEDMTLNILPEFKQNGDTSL

Biological target: T1, human P2Y1 receptor (hP2Y1) (Homo sapiens, UniProt P47900)
T1 construct: a genomic fragment encompassing the entire open reading frame of the human P2Y1 receptor; expressed in transfected cells; host or cells: Jurkat cells, clonal line hP2Y1-JA7, vector pcINeo
Assay: hP2Y1 receptor activity assay (2-MeS-ADP-induced intracellular calcium mobilization in hP2Y1-JA7 Jurkat cells)
Format: cell-based
Settings: platelet aggregation IC50 versus hP2Y1 IC50

For `CCOc1ccc2c(c1)SC1=NS(=O)(=O)C(C(=O)CS(=O)(=O)Nc3nc4ccc(OCC)cc4s3)=C(O)N12` [Compound 1, N^1-(6-Ethoxy-1,3-benzothiazol-2-yl)-2-(8-ethoxy-4-hydroxy-2,2-dioxo-2H-2l^6-benzo[4,5][1,3]thiazolo[2,3-c][1,2,4]thiadiazin-3-yl)-2-oxo-1-ethanesulfonamide], the “selectivity for platelet ADP receptors mediating aggregation over hP2Y1” value was “about 1000 fold”.
